## Antibody variant affinities, Ab-95 light chain, assay 2

Reference: Engelhart et al. 2022, doi:10.1038/s41597-022-01779-4. File: FLAb, binding data.

Antigen: PDVDLGDISGINAS, a 14-residue peptide of the SARS-CoV-2 spike HR2 region.

Parent scFv Ab-95: VH joined to VL by a 15-residue (Gly4Ser)3 linker. Changes lie in the light chain CDRs alone.
VH: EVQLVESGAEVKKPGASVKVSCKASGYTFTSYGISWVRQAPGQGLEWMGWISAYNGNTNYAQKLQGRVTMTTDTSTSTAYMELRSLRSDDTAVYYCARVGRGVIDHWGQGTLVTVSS
VL: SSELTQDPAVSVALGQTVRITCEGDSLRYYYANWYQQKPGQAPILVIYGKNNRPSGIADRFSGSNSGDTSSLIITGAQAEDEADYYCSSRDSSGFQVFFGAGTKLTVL

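The parent was found by panning a naive human phage display library on the peptide. Variants in AAYL52 differ from the parent at up to three CDR positions; double and triple changes were sampled at random. Affinity was read by AlphaSeq, a pooled yeast mating assay with surface-displayed partners. The frequency of each diploid, read from paired DNA barcodes, reflects how well the two displayed proteins bind. A regression on co-assayed BCL2-family reference pairs converts the normalised counts of each replicate to an apparent Kd. There are three technical replicates.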

Substitutions are numbered in sequence along the VL above, starting at 1 (not Kabat).
Numbers give log10(Kd / nM), so 0 is 1 nM and 3 is 1 µM. Smaller is tighter.
A mean of the replicates is given; it leaves out those without a signal.
"nd" means that the variant was in the library but no mating with the target was seen in any replicate; the authors take this as a sign of poor binding, and no number exists.
In this assay the parent's reference entry averaged 2.31; its copy inside this library read 2.25.
Background: pairings of library AAYL52 with three empty control strains gave a value in 28% of cases (median 3.91, 5th percentile 2.90). Values in that range, when seen in few replicates, are hard to tell from nonspecific mating. Also given: how often the same scFv was detected with the empty control strains.

"log10 Kd (nM), mean",detected,signal with controls,changes
nd,0/3,1/9,N33T P54G S89D
3.74,2/3,3/9,N33M S93G V97S
nd,0/3,1/9,D25A K50Y R90F
3.67,2/3,2/9,S26I A32G D91L
3.03,3/3,6/9,Y30V G94K F98A
4.98,1/3,1/9,R28I V97S F98T
3.98,1/3,3/9,G49N N52P S92K
1.89,3/3,3/9,E23V N51D
3.81,3/3,3/9,L27H S55R F98Q
3.92,2/3,3/9,A32I S89K S93A
nd,0/3,1/9,A32Y N33A
3.66,1/3,1/9,Y30V R53H S88G
4.10,1/3,4/9,S92H G94W V97L
3.63,1/3,0/9,A32I R53I R90W
4.36,2/3,0/9,E23C G49Y S92W
nd,0/3,0/9,S88E D91W F98K
3.46,2/3,3/9,S93Y V97C
3.01,3/3,2/9,K50T N52I F98T
1.34,3/3,2/9,Y29R S55W S89E
3.64,3/3,2/9,K50C P54S D91A
4.34,3/3,3/9,Y30L N33S S88V
2.77,1/3,3/9,G24K Y29G S88N
5.70,1/3,2/9,L27N P54R Q96G
3.19,2/3,3/9,Y30K S89L G94S
3.08,3/3,2/9,E23A N33S F98S
3.85,1/3,1/9,G24N Y29R S88I
1.97,3/3,5/9,E23N K50R
3.55,2/3,3/9,L27W S92F F98M
3.71,1/3,4/9,L27G R28M R90F
3.70,1/3,4/9,G24E Y29V S92G
3.30,2/3,3/9,Y29L S88L
3.53,2/3,5/9,R28S R53S V97H
3.77,1/3,5/9,G24E S89Y R90Q
3.91,1/3,0/9,G49K S89F Q96V
5.32,1/3,4/9,K50E N51S R90N
2.76,1/3,2/9,L27A G49L S92Q
2.07,3/3,1/9,Y30S G49K S89V
3.59,2/3,1/9,N52K P54C F98K
2.09,3/3,4/9,S93K F95T
2.26,2/3,1/9,S55W S89Y S93Y
nd,0/3,1/9,S26C A32M F95I
2.70,3/3,0/9,D25V Y30D Y31W
1.62,3/3,3/9,Y31P D91S F95N
nd,0/3,4/9,A32P F95C F98P
4.43,2/3,3/9,G49W R53Q S88R
4.48,2/3,3/9,F95C V97L
4.40,1/3,4/9,A32E N51V R90A
nd,0/3,2/9,S89V D91E
nd,0/3,3/9,N33G S88N Q96R
2.15,3/3,4/9,L27K D91W
nd,0/3,0/9,G49V S93D V97I
2.66,3/3,1/9,R28W Y31P S93M
2.81,3/3,0/9,Y30R Y31K D91R
nd,0/3,2/9,G24E S92E S93Q
4.33,2/3,1/9,Y30F N33R G94S
3.87,1/3,2/9,R28H N51K
2.24,3/3,3/9,S55Q R90I F95S
2.16,3/3,4/9,D25A Q96D V97S
2.58,3/3,4/9,G49N K50E Q96V
3.60,2/3,2/9,K50F R90P D91N
3.63,1/3,3/9,E23G R28C N52R
4.57,2/3,2/9,Y30C A32V R53Q
1.09,3/3,2/9,E23G Y31D F98G
3.39,1/3,0/9,L27P S89K F98G
4.11,1/3,3/9,G24S N33V Q96F
3.63,1/3,3/9,A32E R53H
4.13,3/3,0/9,D25E Y29T N51V
2.31,3/3,2/9,Y31D S89K D91H
1.70,3/3,1/9,Y30P F95T V97Y
3.80,1/3,0/9,N51T F95Y V97N
3.48,3/3,4/9,S26D R28A R53V
2.91,3/3,1/9,G24K N52D
3.02,3/3,4/9,K50Q S55G V97M
3.76,1/3,1/9,N51C S89N F98H
4.88,2/3,4/9,Y30P G49F N52V
1.81,3/3,5/9,E23T K50G F98P

Top 7 of the variants detected in all replicates, tightest first:

{"changes": "E23G Y31D F98G", "log10 Kd (nM), mean": "1.09", "detected": "3/3", "signal with controls": "2/9"}
{"changes": "Y29R S55W S89E", "log10 Kd (nM), mean": "1.34", "detected": "3/3", "signal with controls": "2/9"}
{"changes": "Y31P D91S F95N", "log10 Kd (nM), mean": "1.62", "detected": "3/3", "signal with controls": "3/9"}
{"changes": "Y30P F95T V97Y", "log10 Kd (nM), mean": "1.70", "detected": "3/3", "signal with controls": "1/9"}
{"changes": "E23T K50G F98P", "log10 Kd (nM), mean": "1.81", "detected": "3/3", "signal with controls": "5/9"}
{"changes": "E23V N51D", "log10 Kd (nM), mean": "1.89", "detected": "3/3", "signal with controls": "3/9"}
{"changes": "E23N K50R", "log10 Kd (nM), mean": "1.97", "detected": "3/3", "signal with controls": "5/9"}